Results published in ChEMBL document CHEMBL1649268, “Comparative in vitro activity profile of oritavancin against recent gram-positive clinical isolates” (2009).

Legend:
[1] = tested on: Streptococcus; assay: Antimicrobial activity against erythromycin-nonsusceptible Streptococcus Group F clinical isolates assessed as resistant isolates by broth microdilution method; format: functional
[2] = Antimicrobial activity against erythromycin-nonsusceptible Streptococcus Group C clinical isolates assessed as resistant isolates by broth microdilution method; format: functional, Streptococcus sp. 'group C'
[3] = tested on: Streptococcus; assay: Antimicrobial activity against erythromycin-susceptible Streptococcus Group F clinical isolates assessed as percent susceptible isolates by broth microdilution method; format: functional
[4] = tested on: Streptococcus; assay: Antimicrobial activity against erythromycin-nonsusceptible Streptococcus Group F clinical isolates assessed as percent susceptible isolates by broth microdilution method; format: functional
[5] = Antimicrobial activity against Streptococcus Group C clinical isolates assessed as percent susceptible isolates by broth microdilution method; format: functional, Streptococcus sp. 'group C'
[6] = Antimicrobial activity against erythromycin-nonsusceptible Streptococcus Group G clinical isolates assessed as resistant isolates by broth microdilution method; format: functional, Streptococcus sp. 'group G'
[7] = Antimicrobial activity against Streptococcus Group G clinical isolates assessed as percent susceptible isolates by broth microdilution method; format: functional, Streptococcus sp. 'group G'
[8] = tested on: Streptococcus; assay: Antimicrobial activity against Streptococcus Group F clinical isolates assessed as percent susceptible isolates by broth microdilution method; format: functional
[9] = Antimicrobial activity against erythromycin-nonsusceptible Streptococcus Group C clinical isolates assessed as percent susceptible isolates by broth microdilution method; format: functional, Streptococcus sp. 'group C'
[10] = Antimicrobial activity against erythromycin-nonsusceptible Streptococcus Group G clinical isolates assessed as percent susceptible isolates by broth microdilution method; format: functional, Streptococcus sp. 'group G'
[11] = tested on: Streptococcus; assay: Antimicrobial activity against erythromycin-susceptible Streptococcus Group F clinical isolates assessed as resistant isolates by broth microdilution method; format: functional

Structure (SMILES): CC[C@H]1OC(=O)[C@H](C)[C@@H](O[C@H]2C[C@@](C)(OC)[C@@H](O)[C@H](C)O2)[C@H](C)[C@@H](O[C@@H]2O[C@H](C)C[C@H](N(C)C)[C@H]2O)[C@](C)(O)C[C@@H](C)C(=O)[C@H](C)[C@@H](O)[C@]1(C)O [ERYTHROMYCIN]
- Activity [1]: 82.4%
- Activity [2]: 82.4%
- Activity [3]: 100%
- Activity [4]: 0%
- Activity [5]: 79.8%
- Activity [6]: 82.4%
- Activity [7]: 79.8%
- Activity [8]: 79.8%

Structure (SMILES): C[C@H]1COc2c(N3CCN(C)CC3)c(F)cc3c(=O)c(C(=O)O)cn1c23.C[C@H]1COc2c(N3CCN(C)CC3)c(F)cc3c(=O)c(C(=O)O)cn1c23.O [LEVOFLOXACIN]
- Activity [9]: 94.1%
- Activity [1]: 0%
- Activity [10]: 94.1%
- Activity [3]: 100%
- Activity [4]: 94.1%
- Activity [5]: 98.8%
- Activity [11]: 0%
- Activity [7]: 98.8%
- Activity [8]: 98.8%
